According to publication PMC11200976, “Pitavastatin Calcium Confers Fungicidal Properties to Fluconazole by Inhibiting Ubiquinone Biosynthesis and Generating Reactive Oxygen Species” (Antioxidants, 2024):

Test system: C. albicans
Assay: Broth microdilution assay of synergistic lethality with 4 μg/mL FLC (recovery on drug-free YPD)
Conditions: not given

| Compound | Synergistic lethal concentrations |
| --- | --- |
| Vinorelbine (ditartrate) | 100 µM |
| (S)-Crizotinib | 100 µM |
| Crizotinib (hydrochloride) | 100 µM |
| CC(C)C[C@H](NC(=O)[C@H](Cc1ccccc1)NC(=O)c1cnccn1)B(O)O [Bortezomib] | 100 µM |
| Bleomycin (hydrochloride) | 3.125 µM |
| CCN(CC)CCNC(=O)c1c(C)[nH]c(/C=C2\C(=O)Nc3ccc(F)cc32)c1C [Sunitinib] | 100 µM |
| C[C@@H](Oc1cc(-c2cnn(C3CCNCC3)c2)cnc1N)c1c(Cl)ccc(F)c1Cl [Crizotinib] | 100 µM |

Same assay, conditions: concentration of the compound that is synergistically lethal with 4 μg/mL FLC; C. albicans; recovery on drug-free YPD

| Compound | Synergistic lethal concentrations |
| --- | --- |
| Colistin (sulfate) | 12.5 µM |
| CC(C)COc1ccc(CNC(=O)N(Cc2ccc(F)cc2)C2CCN(C)CC2)cc1 [Pimavanserin] | 12.5 µM |
